From ChEMBL document CHEMBL6134906, “Design, Synthesis, and Biological Evaluation of Selective STING Synergists That Enhance cGAMP-STING Pathway Activation without Inherent Agonist Activity” (J Med Chem, 2025)

By UniProt entry, the sequences of proteins in these tests, tags left out. Where a name states a change or a piece, a line headed by the entry shows the natural chain unless it says otherwise.
UniProt Q86WV6: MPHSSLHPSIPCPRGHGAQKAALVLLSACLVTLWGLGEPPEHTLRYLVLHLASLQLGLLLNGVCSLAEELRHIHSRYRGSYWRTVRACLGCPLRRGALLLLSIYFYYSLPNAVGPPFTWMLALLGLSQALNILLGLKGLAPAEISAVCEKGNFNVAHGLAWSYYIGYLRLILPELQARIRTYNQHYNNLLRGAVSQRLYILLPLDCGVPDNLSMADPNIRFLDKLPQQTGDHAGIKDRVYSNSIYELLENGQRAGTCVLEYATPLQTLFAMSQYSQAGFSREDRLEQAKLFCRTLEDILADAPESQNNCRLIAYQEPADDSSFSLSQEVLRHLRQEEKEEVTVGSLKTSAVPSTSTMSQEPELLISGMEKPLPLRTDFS

Columns and labels:
[1] = target: T1, Stimulator of interferon genes protein (Mus musculus) (UniProt Q3TBT3); conditions: HEK293, filed as agonist, dose 100.0 µM, time 48.0 hrs
T1 sequence (whole entry): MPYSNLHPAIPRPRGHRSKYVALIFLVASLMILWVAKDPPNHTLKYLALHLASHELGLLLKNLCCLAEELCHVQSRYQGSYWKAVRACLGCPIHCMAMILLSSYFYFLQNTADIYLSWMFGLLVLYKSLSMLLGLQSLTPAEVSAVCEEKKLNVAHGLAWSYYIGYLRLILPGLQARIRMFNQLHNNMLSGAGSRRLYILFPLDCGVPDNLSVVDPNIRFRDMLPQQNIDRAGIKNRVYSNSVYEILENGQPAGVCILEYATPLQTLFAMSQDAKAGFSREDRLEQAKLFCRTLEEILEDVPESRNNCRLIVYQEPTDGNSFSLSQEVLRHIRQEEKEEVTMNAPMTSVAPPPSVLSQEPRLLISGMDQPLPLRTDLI

in vivo [2] = conditions: female, Sprague-Dawley, rat, po, 5 mg/kg
in vivo [3] = conditions: female, Sprague-Dawley, rat, iv, 1 mg/kg
in vivo [4] = conditions: female, Sprague-Dawley, rat, po, 5 mg/kg; remark: listed apart in the source
in vivo [5] = conditions: female, Sprague-Dawley, rat, iv, 1 mg/kg; remark: listed apart in the source
THP-1 = experiment: cells; conditions: Homo sapiens, THP-1, 48 h, read-out: Activity
in vivo [6] = conditions: female, Sprague-Dawley, rat, iv, 1 mg/kg; remark: listed apart in the source
in vivo [7] = conditions: female, Sprague-Dawley, rat, po, 5 mg/kg; remark: listed apart in the source
in vivo [8] = conditions: female, Sprague-Dawley, rat, iv, 1 mg/kg; remark: listed apart in the source
in vivo [9] = conditions: female, Sprague-Dawley, rat, po, 5 mg/kg; remark: listed apart in the source
[10] = target: T1, Stimulator of interferon genes protein (Mus musculus); conditions: HEK293, filed as agonist, dose 33.0 µM, time 48.0 hrs
[11] = target: T2, Stimulator of interferon genes protein (Mus musculus, UniProt Q3TBT3)
T2 sequence (Q3TBT3 whole entry): T1 sequence (whole entry)

in vivo [12] = conditions: female, Sprague-Dawley, rat, po, 5 mg/kg; remark: listed apart in the source
in vivo [13] = conditions: female, Sprague-Dawley, rat, po, 5 mg/kg; remark: listed apart in the source
in vivo [14] = conditions: female, Sprague-Dawley, rat, iv, 1 mg/kg; remark: listed apart in the source
in vivo [15] = conditions: female, Sprague-Dawley, rat, iv, 1 mg/kg; remark: listed apart in the source
in vivo [16] = conditions: female, Sprague-Dawley, rat, po, 5 mg/kg; remark: listed apart in the source
in vivo [17] = conditions: female, Sprague-Dawley, rat, iv, 1 mg/kg; remark: listed apart in the source
[18] = target: T3, Stimulator of interferon genes protein (Homo sapiens, UniProt Q86WV6); conditions: HEK293, filed as agonist, dose 33.0 µM, time 48.0 hrs
[19] = target: T3, Stimulator of interferon genes protein; conditions: HEK293, filed as agonist, dose 100.0 µM, time 48.0 hrs

CCOC(=O)Cn1c2ccc(C)cc2c(=O)c2cc(OC)c(C)c(C)c21
EC80 [1]: 0.72 µM
MRT inf at 24 h (in vivo [2]): 5.89 h
AUC(0-inf) at 24 h (in vivo [3]): 1200 ng·h/mL
AUC(0-inf) at 24 h (in vivo [4]): 1760 ng·h/mL
half-life at 24 h (in vivo [5]): 5.28 h
viability at 100 µM (THP-1): 98.1%
Vd at 24 h (in vivo [6]): 3.2 L/kg
bioavailability at 24 h (in vivo [7]): 29.3%
MRT inf at 24 h (in vivo [8]): 3.51 h
half-life at 24 h (in vivo [9]): 8.6 h
EC80 [10]: 2.61 µM
IC50 [11]: 2.2 µM
CL/F at 24 h (in vivo [12]): 78 mL/min/kg
Tmax at 24 h (in vivo [13]): 0.5 h
clearance at 24 h (in vivo [14]): 15.4 mL/min/kg
Cmax at 24 h (in vivo [15]): 353 ng/mL
Cmax at 24 h (in vivo [16]): 390 ng/mL
Tmax at 24 h (in vivo [17]): 0.33 h

COc1cc2c(=O)c3cc(C)cc(C(=O)O)c3[nH]c2c(C)c1C
EC80 [18]: 7.43 µM
EC80 [1]: 4.92 µM
EC80 [19]: 2.28 µM
EC80 [10]: 7.02 µM

CCOC(=O)Cn1c2ccc(OC)cc2c(=O)c2cc(OC)c(C)c(C)c21
EC80 [18]: 6.4 µM
EC80 [1]: 3.63 µM
EC80 [19]: 3.6 µM
EC80 [10]: 6.73 µM
